Binding of CDR-mutated scFvs to a peptide of the spike HR2 region

The target is the same throughout: PDVDLGDISGINAS, from the HR2 region of SARS-CoV-2 spike.

Parent: Ab-95, a human scFv built as VH, the linker GGGGSGGGGSGGGGS, VL. Only the CDRs of the light chain vary.
VH: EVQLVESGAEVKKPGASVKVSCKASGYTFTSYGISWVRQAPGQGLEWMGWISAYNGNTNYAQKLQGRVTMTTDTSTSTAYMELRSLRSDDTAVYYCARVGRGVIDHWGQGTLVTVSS
VL: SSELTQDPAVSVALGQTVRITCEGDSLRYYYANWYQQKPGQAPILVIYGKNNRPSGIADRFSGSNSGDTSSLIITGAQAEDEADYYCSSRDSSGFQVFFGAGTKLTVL

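Phage display of a naive human antibody library on the peptide gave the parent. AAYL52 was designed without a model: most single CDR substitutions and a random sample of double and triple ones. The assay is AlphaSeq: two haploid yeast populations carry antibody and antigen on their surface. The frequency of each diploid, read from paired DNA barcodes, reflects how well the two displayed proteins bind. Each replicate has its own calibration line, from reference interactions of the BCL2 family. There are three technical replicates.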

Changes read parent residue, position, new residue, counted from the first residue of the VL shown. Scale: log10 of Kd in nM, estimated from mating counts; low values are strong binders. Averages over replicates are reported, and they cover detected replicates only. Where no diploid with the target was found in that replicate, the entry reads "nd": below detection, most likely a poor binder, though not proof of it. Background: pairings of library AAYL52 with three empty control strains gave a value in 28% of cases (median 3.91, 5th percentile 2.90). Values in that range, when seen in few replicates, are hard to tell from nonspecific mating. The control count says in how many pairings with the empty strains this scFv gave a signal, with their mean in brackets.

changes	log10 Kd, replicates	mean log10 Kd (nM)	control signals
N33T S93W F95T	4.20 / nd / nd	4.20	1 of 9 (5.51)
E23K L27A N33C	4.98 / nd / nd	4.98	4 of 9 (4.02)
Y30I G49T S92P	3.93 / nd / nd	3.93	5 of 9 (3.95)
L27G R53P S89T	3.36 / nd / nd	3.36	0 of 9
R28Y N51V F95S	3.88 / nd / nd	3.88	1 of 9 (3.52)
G24S S88E	nd / nd / nd	nd	2 of 9 (3.56)
K50L G94F F95V	2.30 / 2.65 / 3.32	2.76	2 of 9 (3.37)
S26C L27N F95A	2.54 / 2.32 / 2.15	2.34	4 of 9 (3.67)
D25W A32P S93T	2.10 / 2.19 / 1.76	2.02	4 of 9 (4.84)
G94Y F95Y F98H	3.35 / 3.84 / 2.59	3.26	1 of 9 (3.62)
G24L S89W	4.00 / 3.65 / 3.27	3.64	4 of 9 (3.98)
R28L N51G R53G	5.05 / 3.98 / 2.81	3.95	1 of 9 (2.98)
K50C D91E F98A	nd / nd / nd	nd	1 of 9 (2.50)
Y29F N33F K50Y	3.42 / nd / nd	3.42	8 of 9 (4.41)
Y30G S88Q	1.09 / 1.00 / 0.64	0.91	3 of 9 (3.55)
G49I S89M Q96S	nd / nd / 4.35	4.35	1 of 9 (4.40)
D25P L27N A32N	2.87 / 2.75 / 3.23	2.95	3 of 9 (4.07)
N51R Q96K	3.30 / 4.93 / 4.07	4.10	4 of 9 (4.86)
K50S N51S P54V	2.67 / 3.06 / 2.59	2.77	3 of 9 (3.89)
S55V S93I	2.93 / nd / 3.33	3.13	3 of 9 (4.20)
G24H R28N D91M	3.46 / 3.13 / 2.27	2.95	3 of 9 (3.50)
N33H G49I D91S	4.05 / nd / 4.54	4.29	1 of 9 (3.76)
D25M Y30G N52E	0.61 / 0.53 / -0.08	0.35	0 of 9
Y30M N33M S92E	4.24 / 3.73 / 3.78	3.92	6 of 9 (4.27)
G49N N52K Q96M	nd / nd / 2.66	2.66	1 of 9 (4.04)
R53N D91H S92A	nd / 2.98 / nd	2.98	2 of 9 (4.89)
S55A D91M S92C	1.96 / 1.97 / 1.71	1.88	5 of 9 (3.46)
S26W R28P Y29L	nd / nd / nd	nd	5 of 9 (4.06)
Y30S A32K N52V	3.06 / 3.06 / 2.68	2.94	6 of 9 (4.50)
G49A N51G P54A	2.88 / 3.02 / nd	2.95	1 of 9 (4.15)
K50W N51M S55V	nd / 4.69 / nd	4.69	3 of 9 (3.22)

Top 2 of the variants detected in all replicates, tightest first:

changes	log10 Kd, replicates	mean log10 Kd (nM)	control signals
D25M Y30G N52E	0.61 / 0.53 / -0.08	0.35	0 of 9
Y30G S88Q	1.09 / 1.00 / 0.64	0.91	3 of 9 (3.55)

The measurements come from Engelhart et al. 2022 (doi:10.1038/s41597-022-01779-4) through the FLAb antibody collection.